One compound from article PMC4136963, “Structure-Based Design and Synthesis of Antiparasitic Pyrrolopyrimidines Targeting Pteridine Reductase 1” (Journal of Medicinal Chemistry, 2014) can be followed below.

The test system of the test is HEK 293T cells. Briefly: Alamar blue assay against HEK cells. The class given is cell-based. The settings on record: read-out: HEK (IC50 μM); human HEK cells.

For `O=[As]c1ccccc1` (stereo not shown), the half-maximal inhibitory concentration (IC50) stood at 1.49 µM.
